# pIC50: −log10 of the molar value.
# Target: T1, Catechol O-methyltransferase (Rattus norvegicus, UniProt P22734)
# T1 sequence (P22734 whole entry): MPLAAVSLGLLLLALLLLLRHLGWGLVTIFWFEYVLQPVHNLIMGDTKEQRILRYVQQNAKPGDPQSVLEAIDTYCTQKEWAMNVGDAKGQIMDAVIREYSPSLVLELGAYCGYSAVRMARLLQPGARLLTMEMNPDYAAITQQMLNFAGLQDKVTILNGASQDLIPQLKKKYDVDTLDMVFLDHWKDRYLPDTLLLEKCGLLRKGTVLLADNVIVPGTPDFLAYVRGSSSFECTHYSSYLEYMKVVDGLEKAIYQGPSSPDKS
# Experiment: Inhibitory activity against COMT in rat brain
# Format: tissue-based
structure (smiles),measurement,value
O=C(Cc1ccccc1)c1cc(O)c(O)c([N+](=O)[O-])c1 [NEBICAPONE],pIC50,8.43
